# Reference: EP3636255A1 (priority 2018, dated 2020)
# Tests used:
# [1] = test system: CCT/TRiC; experiment: Chemoproteomic target identification by photo-cross-linking and biotin-streptavidin pull-down in the yeast cytosolic fraction; conditions: UV 365 nm, biotin-streptavidin pull-down
# [2] = test system: CCT/TRiC temperature-sensitive mutants; conditions: compared to WT expressing CerS3 or control thermo-sensitive strains; 3 days at 24°C
Structure (SMILES),"cross-linking to interacting protein targets, all 8 subunits of CCT/TRiC [1]",sensitivity of temperature sensitive CCT/TRiC mutants expressing CerS3 [2]
"C#CCCCC1(CCCCCCCCC(=O)N[C@@H](C)[C@H](O)CCCCCCCCCCCCCCC)N=N1 [Formula (II""'), N-((2S,3R)-3-hydroxyoctadecan-2-yl)-9-(3-(pent-4-yn-1-yl)-3H-diazirin-3-yl)nonanamide]",cross-linked,
"CCCCCCCCCCCCCCCC(O)C(C)N (centres unmarked) [Formula 1, 2-aminooctadecan-3-ol]",,hypersensitivity
